# Experimental data taken from PubChem BioAssay AID651635 (National Center for Advancing Translational Sciences (NCATS), 2012).
# Only a part is listed here, and it is no random draw. Records with an inconclusive call do not appear. Activity calls are given as the source filed them. Calls follow the shape of the dose curve; as a rule, active = well fitted cell-killing curve with a large enough effect; inconclusive = small, poorly fitted or top-dose-only effect, or effect the other way; inactive = no such curve, though single readings can be large or run the other way.
# Assay: Viability Counterscreen for Primary qHTS for Inhibitors of ATXN expression; also: nearly all actives have a fitted effect of over 40% in size
# Details: S2 cells (HEK-293 line with an ATXN2-luciferase reporter) viability, CellTiter-Fluor protease fluorescence, 24 h; at 56.7 µM (top of the series)
row,SMILES,"activity change, negative = cytotoxicity"
1,Cc1ccc(C(=O)NCC2(N(C)C)CCCCC2)o1,inactive: -11%
2,CCCOc1ccc(C(=O)NCC2(N(C)C)CCCCC2)cc1OC,inactive: -24.5%
3,O=C(NCC1(N2CCOCC2)CCCCC1)c1ccccc1Br,inactive: -18.4%
4,O=C(NCC1(N2CCCCC2)CCCCC1)c1cncc(Br)c1,inactive: -29.5%
5,O=C(OC1CN2CCC1CC2)c1ccc([N+](=O)[O-])cc1 (configuration not stated),inactive: -33.2%
6,COc1cc(OC)c(C(=O)NCC2(N(C)C)CCCCC2)cc1OC,inactive: 2.58%
7,CCC(c1nnnn1C(C)(C)C)N1CCC(n2c(=O)[nH]c3ccccc32)CC1 (configuration not stated),inactive: -13.8%
8,COc1ccc(CN(CCCl)CCCl)cc1Cl,inactive: -24.8%
9,CN(C)c1cccc(C(=O)NCC2(N3CCCCC3)CCCCC2)c1,inactive: -5.17%
10,CC(C)c1ccc(NC2CCN(C(=O)OC(C)(C)C)CC2)cc1,inactive: -27.2%
11,CN1CCN(CCOC(=O)C(O)(c2ccccc2)c2ccccc2)CC1,inactive: -21.7%
12,CC(C)c1ccc(C(=O)NCC2(N3CCOCC3)CCCCC2)cc1,inactive: -5.91%
13,COc1ccc(NC2CCN(C(=O)OC(C)(C)C)CC2)cc1,inactive: -38.6%
14,COc1cc(C(=O)NCC2(N3CCCCC3)CCCCC2)ccc1OC(F)F,inactive: -30.3%
15,O=C(NCC1(N2CCOCC2)CCCCC1)c1cc(=O)[nH]c2ccccc12,inactive: 4.44%
16,O=C(NCC1(N2CCCCC2)CCCCC1)c1cccc(C(F)(F)F)c1,inactive: -19.3%
17,O=C(NCC1(N2CCCCC2)CCCCC1)c1cccc([N+](=O)[O-])c1,inactive: 0.362%
18,CCOc1ccc(C(=O)NCC2(N3CCOCC3)CCCCC2)cc1,inactive: -16.4%
19,CSc1ccc(C(=O)NCC2(N3CCOCC3)CCCCC2)cc1,inactive: -13%
20,CCN1CCC(Nc2ccc(Cl)cc2)CC1,inactive: -16.9%
21,N#CC1(Nc2ccccc2)CCN(CCc2ccccc2)CC1,inactive: -19.7%
22,O=C(NCC1(N2CCCCC2)CCCCC1)c1ccc(OC(F)F)cc1,inactive: -36.3%

row,SMILES,"activity change, negative = cytotoxicity"
1,COc1cc(C(=O)NCC2(N(C)C)CCCCC2)ccc1OC(F)F,inactive: -19.7%
2,CCOC(=O)N1CCC(Nc2cccc(C)c2)CC1,inactive: -24.1%
3,O=P1(N(CCCl)CCCl)SCCCS1,inactive: 1.56%
4,CCCCOc1ccc(C(=O)NCC2(N3CCOCC3)CCCCC2)cc1,inactive: -20.3%
5,COc1ccc(NC2CCN(CCc3ccccc3)CC2)c(OC)c1,inactive: -24.1%
6,CCOC(=O)N1CCC(Nc2ccc(F)cc2)CC1,inactive: -19.1%
7,COc1ccccc1C(=O)NCC1(N2CCOCC2)CCCCC1,inactive: -9.1%
8,CCOc1ccc(C)cc1CN(CCCl)CCCl,inactive: -5.62%
9,O=C(NCC1(N2CCOCC2)CCCCC1)c1ccc(Cl)cc1,inactive: -23.9%
10,CC(C)(C)n1nnnc1C(c1ccccc1)N1CCC(n2c(=O)[nH]c3ccccc32)CC1 (configuration not stated),inactive: -35%
11,O=C1CCN(Cc2ccccc2)CC1,inactive: -3.21%
12,CCOC(=O)N1CCC(Nc2ccc(OC)cc2)CC1,inactive: -20.1%
13,O=C(OC1CN2CCC1CC2)C1c2ccccc2Oc2ccccc21 (configuration not stated),inactive: -19.6%
14,O=C(NCC1(N2CCCCC2)CCCCC1)c1ccc(Cl)s1,inactive: -38.7%
15,N#CC1(Nc2ccccc2)CCN(Cc2ccccc2)CC1,inactive: -14.1%
16,O=C1C(O)=C([N+](=O)[O-])C(=O)C(O)=C1[N+](=O)[O-],inactive: -9.61%
17,O=C(NCC1(N2CCOCC2)CCCCC1)c1cc2ccccc2o1,inactive: -22.4%
18,O=C(NCC1(N2CCCCC2)CCCCC1)c1ccc(Cl)nc1,inactive: 5.03%
19,Cc1cc(C)cc(N(C(=O)c2ccccc2)C2CCN(C(=O)OC(C)(C)C)CC2)c1,inactive: -21.3%
20,CSc1ccccc1C(=O)NCC1(N2CCCCC2)CCCCC1,inactive: -23.4%
21,CCOC(=O)N1CCC(=O)CC1,inactive: -8.83%
22,Cc1cccc(NC2(C#N)CCN(Cc3ccccc3)CC2)c1,inactive: -32%

row,SMILES,"activity change, negative = cytotoxicity"
1,O=C(NCC1(N2CCCCC2)CCCCC1)c1ccc(=O)[nH]c1,inactive: -11.4%
2,O=C(NCC1(N2CCCCC2)CCCCC1)c1cccs1,inactive: -24.9%
3,COc1ccc(C(=O)NCC2(N3CCCCC3)CCCCC2)cc1,inactive: -24.8%
4,CCC(c1nnnn1C1CCCC1)N1CCC(n2c(=O)[nH]c3ccccc32)CC1 (configuration not stated),inactive: -30%
5,CC(C)(C)OC(=O)N1CCC(N(C(=O)c2ccccc2)c2ccc(F)cc2)CC1,inactive: -29.1%
6,COc1ccc(C(=O)NCC2(N3CCCCC3)CCCCC2)c(OC)c1OC,inactive: 6.62%
7,CN1CCC(Nc2ccc(Cl)cc2)CC1,inactive: -23.3%
8,CCC(CO)(C(=O)OC1CN2CCC1CC2)c1ccccc1 (configuration not stated),inactive: 9.74%
9,COc1cc(OC)cc(C(=O)NCC2(N3CCOCC3)CCCCC2)c1,inactive: -10.1%
10,COc1cc(C(=O)NCC2(N3CCOCC3)CCCCC2)cc(OC)c1OC,inactive: -32.2%
11,CCCOc1ccc(C(=O)NCC2(N(C)C)CCCCC2)cc1,inactive: -36.8%
12,CC(C)(C)OC(=O)N1CCC(Nc2ccccc2)CC1,inactive: 6.56%
13,O=C(O)C1(Nc2ccccc2)CCN(Cc2ccccc2)CC1,inactive: -25.5%
14,CCOc1ncccc1C(=O)NCC1(N2CCOCC2)CCCCC1,inactive: -20.5%
15,CN1CCC(Nc2ccc(F)c(Cl)c2)CC1,inactive: -12.5%
16,CC(C)(C)c1ccc(C(=O)NCC2(N3CCOCC3)CCCCC2)cc1,inactive: -2.82%
17,O=C(NCC1(N2CCCCC2)CCCCC1)c1ccco1,inactive: -27.7%
18,CN(C)c1ccc(C(=O)NCC2(N3CCCCC3)CCCCC2)cc1,inactive: -1.15%
19,Cc1ccccc1C(=O)NCC1(N(C)C)CCCCC1,inactive: -14%
20,Cc1ccccc1NC1(C#N)CCN(Cc2ccccc2)CC1,inactive: -51.5%
21,CC(C)(C)n1nnnc1C(c1ccnc2ccccc12)N1CCC(n2c(=O)[nH]c3ccccc32)CC1 (configuration not stated),inactive: -37.9%
22,CCN1CCC(Nc2cccc(F)c2)CC1,inactive: -24.1%

row,SMILES,"activity change, negative = cytotoxicity"
1,COc1ccc(C(c2nnnn2C2CCCCC2)N2CCC(n3c(=O)[nH]c4ccccc43)CC2)cc1 (configuration not stated),inactive: -35.9%
2,Cc1ccc(NC2(C#N)CCN(Cc3ccccc3)CC2)cc1,inactive: -19.5%
3,Cc1ccc(C(=O)NCC2(N3CCCCC3)CCCCC2)o1,inactive: -26.7%
4,Fc1ccccc1NC1CCN(Cc2ccccc2)CC1,inactive: -5.55%
5,COc1cc(OC)cc(C(=O)NCC2(N3CCCCC3)CCCCC2)c1,inactive: 17.5%
6,CN(C)C1(CNC(=O)c2ccc(C(C)(C)C)cc2)CCCCC1,inactive: -37.2%
7,c1ccc(CN2CCC(Nc3ccccc3)CC2)cc1,inactive: -20.9%
8,O=C(NCC1(N2CCOCC2)CCCCC1)c1ccccc1,inactive: -12%
9,CN(C)C1(CNC(=O)c2cccc(C#N)c2)CCCCC1,inactive: 11.4%
10,CC(C)(C)OC(=O)N1CCC(N(C(=O)c2ccccc2)c2ccc(Cl)cc2)CC1,inactive: -18.9%
11,O=C(NCC1(N2CCOCC2)CCCCC1)c1ccc([N+](=O)[O-])cc1,inactive: -34.2%
12,N#Cc1ccc(C(=O)NCC2(N3CCCCC3)CCCCC2)cc1,inactive: 10.9%
13,O=C(NCC1(N2CCOCC2)CCCCC1)c1ccccc1[N+](=O)[O-],inactive: -7%
14,O=C(OC1CN2CCC1CC2)C1c2ccccc2C=Cc2ccccc21 (configuration not stated),inactive: -23.1%
15,CCc1cc(C(=O)NCC2(N3CCCCC3)CCCCC2)sc1C,inactive: -35.9%
16,N/C(=N\O)c1c(N)no[n+]1[O-],inactive: -26.8%
17,CCOC(=O)N1CCC(Nc2ccc(C)cc2)CC1,inactive: -18%
18,COc1ccc(C(=O)NCC2(N3CCOCC3)CCCCC2)cc1OC,inactive: -24.6%
19,CCC(=O)N(c1ccccc1)C1CCNCC1,inactive: -0.0187%
20,O=C(NCC1(N2CCOCC2)CCCCC1)c1cc(Br)ccc1Cl,inactive: -16.1%
21,COc1cc(C(=O)NCC2(N3CCOCC3)CCCCC2)cc(OC)c1C,inactive: -53.6%
